Assay results reported in patent publication US6630120B1, “Agents to increase the uptake of pharmaceuticals and diagnostic substances into solid tumors” (priority 1999, dated 2003).

Sequences of proteins named here, by UniProt entry; tags and fusion partners are left off.
UniProt P25023, whole entry: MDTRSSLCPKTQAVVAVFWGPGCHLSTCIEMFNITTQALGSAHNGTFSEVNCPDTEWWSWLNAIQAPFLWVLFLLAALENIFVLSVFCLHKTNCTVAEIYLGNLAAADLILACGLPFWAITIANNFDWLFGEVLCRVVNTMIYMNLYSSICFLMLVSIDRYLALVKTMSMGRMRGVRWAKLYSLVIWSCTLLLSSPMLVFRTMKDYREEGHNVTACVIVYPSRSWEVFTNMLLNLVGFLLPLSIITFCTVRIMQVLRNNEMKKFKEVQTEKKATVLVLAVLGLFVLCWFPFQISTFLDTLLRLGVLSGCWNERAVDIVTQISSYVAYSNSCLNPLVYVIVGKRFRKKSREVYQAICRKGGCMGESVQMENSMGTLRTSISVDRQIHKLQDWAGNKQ

Target: T1, B2 receptors (Rattus norvegicus, UniProt P25023)
T1 construct: from tissue; host or cells: live male Fisher rats with subcutaneous MAT B-III tumours (tumour vasculature)
Test: Effect of B2 receptor blocking on the uptake of carboplatin into tumors
Format: in vivo
Conditions: FIG. 15; HOE-140 100 μg/kg infused 15 minutes starting 5 minutes prior to Cereport infusion (1.0 1μg/kg)
Protocol: In one set of experiments, the B2 receptor blocking agent D-Arg[Hyp^3-Thi^5-D-Tic^7-Oic^8] (HOE-140) (100 μg/kg) was infused for 15 minutes starting 5 minutes prior to the Cereport™ infusion (1.0 1μg/kg) and extending throughout the 10 minute Cereport™ infusion.

For “D-Arg[Hyp^3-Thi^5-D-Tic^7-Oic^8] [HOE-140]”, the “effect on the carboplatin uptake effects of Cereport in inner and outer tumor” value was “nullified”.
